Values of other authors in PMC9285603, “Flavan‐3‐ol Microbial Metabolites Modulate Proteolysis in Neuronal Cells Reducing Amyloid‐beta (1‐42) Levels” (Molecular Nutrition & Food Research, 2021).

Conditions: cited from earlier work

## 5‐(hydroxyphenyl)‐γ‐valerolactone‐sulfate (3ʹ,4ʹ isomer)
  ability to reach the brain: able to reach the brain
